System: yeast (MT 8-1)
Conditions: ionic liquid concentration up to 200 mM

1-ethyl-3-methylimidazolium diethylphosphate [[Emim][DEP]]
yeast survivability (live cell counts): not greatly affected

Reference: US20110033906A1 (priority 2009, published 2011)
